In PubChem BioAssay AID1910 (Broad Institute, 2009):
The entries are a selection whose mix differs from that of the whole data set. Calls of active or inactive are those of the source.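 The calls were made as follows: active = mean activation of at least 10% of the iron chelator positive control signal, with at least half of replicates also reaching 10%; inconclusive = mean and replicate majority disagree about reaching 10%; inactive = mean and most replicates under 10%.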

assay: hypoxia response element reporter activation – cell-based, U2OS HRE-luciferase, luminescence, primary screen (AID 1910); details: active compounds read high, screened at 7.5 µM (by protocol), normalized: DMSO 0%, desferrioxamine 100%

SMILES	activation
CCNC(=S)/N=C(\N)N[N+](=O)[O-]	inactive: -0.428%
CC(=O)Nc1ccc(Oc2c([N+](=O)[O-])cc([N+](=O)[O-])cc2[N+](=O)[O-])cc1	inactive: -0.185%
CC(=O)Nc1ccc([As](=O)(O)O)c(O)c1	inactive: -0.158%
C[C@@H]1C=CCP(=O)(Oc2ccccc2)O1 (some centres undefined)	inactive: 0.132%
C[C@H]1OP(=O)(Oc2ccccc2)C[C@@H]2O[C@@H]21 (some centres undefined)	inactive: -0.207%
CC(=O)c1ccc(N2CC2c2ccncc2)cc1 (centres undefined)	inactive: -1.28%
CC(C)(C)C(=O)NC(Sc1ccccc1)C(Cl)(Cl)Cl (centres undefined)	inactive: -0.928%
CCOc1ccc(C2=NCC(CBr)S2)cc1 (centres undefined)	inactive: 1.12%
O=P1(Nc2nc3ccc(Cl)cc3s2)COc2ccccc2O1 (centres undefined)	inactive: 0.666%
CCOP(=O)(Nc1cccc2ccccc12)OCC	inactive: -0.0828%
COc1cc(C2NCCC3(OCCO3)C2(C)C)cc(OC)c1OC (centres undefined)	inactive: 0.0109%
Nc1cccc2c([As](=O)(O)O)cccc12	inactive: -0.266%
Cc1ccc(NCCc2c([N+](=O)[O-])cc([N+](=O)[O-])cc2[N+](=O)[O-])cc1	inactive: 0.883%
CCCOP(=S)(Nc1nc(N)cc(=O)[nH]1)OCCC	inactive: -0.971%
O=[As](O)(c1cccc(O)c1)c1cccc(O)c1	inactive: -0.456%
Cc1cccc(OCC(=O)OC2CN3CCC2CC3)c1 (centres undefined)	inactive: -0.123%
O=C(OC1CN2CCC1CC2)c1ccc(Cl)cc1 (centres undefined)	inactive: -0.654%
CS(=O)(=O)c1ccc(Cl)c(NC(=O)COC(=O)C(O)(c2ccccc2)c2ccccc2)c1	inactive: -0.396%
COc1cc(C(=O)NCC2(N3CCOCC3)CCCCC2)cc(Cl)c1OC(C)C	inactive: -0.0417%
O=[As](O)(O)c1cccnc1	inactive: -0.104%
CCOP1(=S)c2c(C)nn(CCC#N)c2N=C(c2ccc(F)cc2)N1C (centres undefined)	inactive: -0.55%

SMILES	activation
CN(C(=O)Cc1ccccc1)[C@@H]1CC[C@]2(CCCO2)C[C@H]1N1CCCC1	inactive: -0.216%
N#CCCN(C(=O)COC(=O)C(O)(c1ccccc1)c1ccccc1)c1ccc(F)cc1	inactive: -0.841%
CN(C(=O)Cc1ccc(Cl)c(Cl)c1)[C@H]1CC[C@@]2(CCCO2)C[C@@H]1N1CCCC1	inactive: 0.49%
CN(C)C(=O)c1cc([N+](=O)[O-])cc2c1-c1c(cc([N+](=O)[O-])cc1[N+](=O)[O-])C2=O	inactive: -1.77%
O=[N+]([O-])c1ccc2c(c1)nnn2O	inactive: -0.842%
NC(=O)Nc1ccc([As](=O)(O)O)cc1	inactive: -1.37%
O=C(O)COc1ccc([As](=O)(O)O)cc1[N+](=O)[O-]	inactive: -0.163%
Nc1ccccc1[As](=O)(O)c1ccccc1	inactive: 0.202%
O=P(Nc1nccs1)(c1ccccc1)c1nc2ccccc2s1 (centres undefined)	inactive: -0.296%
O=P(Nc1nccs1)(Oc1ccccc1)Oc1ccccc1	inactive: -0.193%
CCOP1(=S)c2c(C)nn(CCC#N)c2N=C(c2ccccc2F)N1C (centres undefined)	inactive: 0.00528%
CS(=O)(=O)c1cc([N+](=O)[O-])c2no[n+]([O-])c2c1	inactive: 1.65%
Nc1cccc([As](=O)(O)c2ccccc2)c1	inactive: -0.151%
O=P1(Nc2ccc(Br)cn2)COc2ccccc2OC1	inactive: -0.143%
O=[As](O)(c1cccs1)c1cccs1	inactive: -35.6%
Cc1ccc(OCC(=O)OC2CN3CCC2CC3)cc1 (centres undefined)	inactive: -2.75%
O=P1(Nc2ncccn2)COc2ccccc2OC1	inactive: -0.223%
CN(C)C1(CNC(=O)c2ccc(S(C)(=O)=O)cc2)CCCCC1	inactive: -0.277%
O=C(/C=C/c1ccccc1)OC1CN2CCC1CC2 (centres undefined)	inactive: 0.535%
Cc1ccc(C(=O)OC2CN3CCC2CC3)cc1 (centres undefined)	inactive: -0.909%
CC1CCC(C(C)C)C(OP(=O)(Nc2ccccn2)c2ccccc2)C1 (centres undefined)	inactive: -1.52%

SMILES	activation
Cc1nn(-c2ccccc2)c2c1P(=O)(N1CCOCC1)N(C)C(c1ccccc1)=N2 (centres undefined)	inactive: -0.403%
CN(C(=O)Cc1ccc(Cl)c(Cl)c1)[C@@H]1CCCC[C@H]1N1CCCC1	inactive: -0.271%
CC(C)/C=N\N=C(\N)N[N+](=O)[O-]	inactive: 0.754%
CC1(CBr)Cn2c(nc3ccccc3c2=O)S1 (centres undefined)	inactive: -0.357%
O=[As](O)(c1ccccc1Br)c1ccccc1Br	inactive: -0.925%
COc1ccccc1CNC(=O)COC(=O)C(O)(c1ccccc1)c1ccccc1	inactive: -0.31%
CC(C)(C)C(=O)NC(Sc1ncccn1)C(Cl)(Cl)Cl (centres undefined)	inactive: -0.174%
Clc1n[nH]nc1-c1nn[nH][15n]1	inactive: -0.0346%
CCOP(=O)(NC(=NC(C)c1ccccc1)NC(C)c1ccccc1)OCC (centres undefined)	inactive: -0.542%
CCC1=CC2Cc3nc4ccc(Cl)cc4c(N)c3C(C1)C2 (centres undefined)	inactive: -0.361%
O=P1(Nc2ccccn2)COc2ccccc2OC1	inactive: 0.402%
CN(CCCl)Cc1cc(Cl)c(NC2=NCCN2)c(Cl)c1	inactive: 0.18%
CCOP(=O)(Nc1ccc(C)cn1)OCC	inactive: -1.11%
CCC(C)N(CC(C)C)C(=S)SC(NC(C)=O)C(Cl)(Cl)Cl (centres undefined)	inactive: -0.432%
O=C(OC1CN2CCC1CC2)c1cccc([N+](=O)[O-])c1 (centres undefined)	inactive: 0.195%
CCOC(=O)c1ccc(NC(=O)C(C)(CCl)SC)cc1 (centres undefined)	inactive: -0.232%
O=C(Nc1ccncc1[N+](=O)[O-])c1ccc([N+](=O)[O-])cc1[N+](=O)[O-]	inactive: 1.76%
O=C(COc1ccccc1)OC1CN2CCC1CC2 (centres undefined)	inactive: 0.136%
COP1(=S)c2c(C)nn(CCC#N)c2N=C(c2ccc(F)cc2)N1C (centres undefined)	inactive: 0.116%
Cc1cc(SC(NC=O)C(Cl)(Cl)Cl)ncn1 (centres undefined)	inactive: -0.43%
O=P(Nc1ccccn1)(c1cccc2ccccc12)c1cccc2ccccc12	inactive: -0.788%

SMILES	activation
O=[N+]([O-])c1ccc(Nc2ccc(Oc3ccc([N+](=O)[O-])cc3[N+](=O)[O-])cc2)c([N+](=O)[O-])c1	inactive: -1.86%
CCOC(=O)Nc1cccc([As](=O)(O)O)c1	inactive: 0.084%
Cc1cc(SC(NC(=O)c2ccccc2)C(Cl)(Cl)Cl)nc(C(C)C)n1 (centres undefined)	inactive: -0.205%
CCCCOc1ccc(C(=O)NCC2(N3CCCCC3)CCCCC2)cc1OC	inactive: 0.463%
CCOC(=O)Nc1ccc([As](=O)(O)O)c(O)c1	inactive: -0.184%
O=[N+]([O-])c1cc([N+](=O)[O-])c(-c2ccn[nH]2)s1	inactive: -0.0685%
CCN(CC)C(=S)SC(NC=O)C(Cl)(Cl)Cl (centres undefined)	inactive: -0.206%
CC(C)NC(=O)NP(=O)(Oc1ccccc1)Oc1ccccc1	inactive: -0.142%
ClCCSc1nnc(-c2cccnc2)o1	inactive: 0.839%
CC(C)c1ccc(OP(=O)(Nc2ccccn2)Oc2ccccc2F)cc1 (centres undefined)	inactive: -0.46%
CC(Cc1ccc(O)cc1)NCC(O)c1cc(O)cc(O)c1 (centres undefined)	inactive: -0.444%
Cc1ccc(OP(=O)(Nc2ccc([N+](=O)[O-])cn2)Oc2ccc(C)cc2)cc1	inactive: 0.118%
Cc1ccc2nc3c(c(C)c2c1)CC(C(Cl)Cl)S3 (centres undefined)	inactive: 1.08%
C[As](=O)(O)c1cccc(C(=O)O)c1	inactive: 1.12%
O=[As](O)(c1ccc(O)cc1)c1ccccc1O	inactive: 0.11%
COc1ccc(N/C(=N/P(=O)(N2CCOCC2)N2CCOCC2)N2CCOCC2)cc1	inactive: -0.387%
COc1cc(I)ccc1[As](=O)(O)O	inactive: -0.311%
COc1ccc2nc(NP(=O)(c3ccccc3)c3ccccc3)sc2c1	inactive: -0.0927%
Cc1c2c(nc3ccccc13)SC(C(Cl)Cl)C2 (centres undefined)	inactive: 0.187%
Cc1cc(=O)[nH]c(N[N+](=O)[O-])n1	inactive: 0.00345%
O=C(OC1CN2CCC1CC2)C12CC3CC(CC(C3)C1)C2 (centres undefined)	inactive: 0.0869%
